Results as given in ChEMBL document CHEMBL4811245, “Design, synthesis and biological evaluation of brain penetrant benzazepine-based histone deacetylase 6 inhibitors for alleviating stroke-induced brain infarction” (Eur J Med Chem, 2021).

How the values were obtained:
in vivo [1] = settings: C57BL/6, mouse, brain/plasma, ip, 20 mg/kg
in vivo [2] = settings: C57, mouse, brain/plasma, ip, 20 mg/kg
in vivo [3] = settings: C57, mouse, brain/plasma, ip, 20 mg/kg; remark: listed apart in the source

O=C(NO)c1ccc(CN2CCCc3cc(Cl)ccc32)cc1
Kp (in vivo [1]): 2.54
Kp at 4 h (in vivo [2]): 3.28
Kp at 1 h (in vivo [3]): 1.89
